This passage reports chromatographic logP results from patent US7772408B1, “Substituted 5-alkoxypsoralens as inhibitors of potassium channel activity in lymphocytes and other cells” (The Regents of the University of California, priority 2002, dated 2010).

This data set can be described thus: physchem.

A word on the chromatographic logP: it is lipophilicity estimated from chromatographic retention. Read a low chromatographic logP as lower lipophilicity. The molecule `COc1c2ccoc2cc2oc(=O)ccc12` [5-MOP, 5-Methoxypsoralen] showed a chromatographic logP of 2.15.
